Experimental data from publication PMC3389199 (Bioorganic & medicinal chemistry letters, 2012).

Tested on: CB2 (mouse or human receptor expressed in HEK293)
Assay: Cannabinoid receptor competition binding, CB2

Row | Compound | binding to the cannabinoid receptors (in words), CB2
1 | O=C(NCCCCCCNC(=O)ON=C1CCCCC1)ON=C1CCCCC1 [RHC80267 (1), RHC80267] | did not bind
2 | O=C(N[C@H]1COC1=O)OCc1ccccc1 [SD41] | did not bind
